Laboratory results as given in patent US7612035B2, “Inhibition of mitogen-activated protein kinase (MAPK) pathway: a selective therapeutic strategy against melanoma” (Van Andel Research Institute, priority 2000, dated 2009).

Tested on: melanotic UACC-257 and MALME-3M cell lines
Experiment: Determination of melanin content (melanogenesis)
Assay type: cell-based, human
Conditions: single agents; melanotic melanoma cell lines
Protocol: Intracellular melanin was solubilized by lysing cells in 0.2N NaOH and incubating at 60° C. for 1 hour. The relative absorbance at 405 nm for melanin to that at 280 nm for protein was calculated (A405/A280). The control relative absorbance, “A405/A280 (PA alone)” was set to 1.0. The melanin content in each treatment group was expressed as the ratio
[formula] To visualize melanization, 4×10^6 cells from each group were concentrated in a well of 96-well microplate and photographed (e.g., FIG. 5). In Vivo Testing of LF on M14-MEL or SK-MEL-28 Xenografts in Athymic Nude Mice
Melanogenesis is induced during melanocyte (and melanoma cell) differentiation (Busca, R. et al. Mol Biol Cell 9:1367-1378 (1998)). Inhibition of the MAPK pathway was known to induce differentiation of B16 mouse melanoma cells (Englaro, W. et al. J Biol Chem 273:9966-9970 (1998)). […] To address this possibility, cyclic AMP (cAMP)-elevating agents that induce melanoma cell differentiation (Busca et al., supra, and reference cited therein) were examined for their effects on melanogenesis and apoptosis induced by LF or PD98059 in the melanotic UACC-257 and MALME-3M cell lines.

CC(C)CCc1nc2[nH]c(=O)[nH]c(=O)c2[nH]1
melanin production / melanogenesis: Neither EF nor IBMX treatment induced significant melanogenesis
